This test has as its target LIM domain kinase 2 (Homo sapiens, UniProt P53671). As to the kind of experiment: Inhibition of LIMK2 (unknown origin).

Sequences of proteins named here, by UniProt entry; tags and fusion partners are left off. A change or cut given only in a name is not applied to a line headed by its entry.
UniProt P53671: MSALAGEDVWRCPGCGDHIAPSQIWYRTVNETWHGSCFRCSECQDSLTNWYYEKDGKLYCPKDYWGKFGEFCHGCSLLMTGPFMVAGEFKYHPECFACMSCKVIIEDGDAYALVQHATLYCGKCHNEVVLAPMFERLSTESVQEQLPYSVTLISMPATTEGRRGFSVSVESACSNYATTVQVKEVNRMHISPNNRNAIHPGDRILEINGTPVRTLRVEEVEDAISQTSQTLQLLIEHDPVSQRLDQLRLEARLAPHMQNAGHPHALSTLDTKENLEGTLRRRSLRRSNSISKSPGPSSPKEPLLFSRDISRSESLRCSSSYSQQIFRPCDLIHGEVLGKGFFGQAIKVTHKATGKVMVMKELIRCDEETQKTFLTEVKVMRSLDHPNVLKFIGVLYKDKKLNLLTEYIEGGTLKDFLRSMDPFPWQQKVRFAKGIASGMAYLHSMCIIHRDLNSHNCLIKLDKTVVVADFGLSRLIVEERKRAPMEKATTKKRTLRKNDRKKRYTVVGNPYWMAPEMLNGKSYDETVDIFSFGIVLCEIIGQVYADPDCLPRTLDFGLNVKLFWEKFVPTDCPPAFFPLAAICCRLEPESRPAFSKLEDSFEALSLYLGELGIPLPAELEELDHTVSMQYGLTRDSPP

The values that follow come from ChEMBL document CHEMBL5108049, “Development and Characterization of Type I, Type II, and Type III LIM-Kinase Chemical Probes” (J Med Chem, 2022).

As usually defined, the IC50 is the concentration that gives 50% inhibition. A higher IC50 goes with lower potency. As to `Cc1c[nH]c2ncnc(-c3ccc(NC(=O)N(CCO)c4ccccc4)cc3)c12`, the IC50 was 0.024 µM.
